## Antibody variant affinities, Ab-14 light chain, assay B

From the AlphaSeq antibody data of Li et al. 2023 (doi:10.1038/s41467-023-39022-2), copy in the FLAb collection.

Target peptide (SARS-CoV-2 spike, HR2 region): PDVDLGDISGINAS

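The starting antibody came from a phage panning campaign against this peptide. Designed CDR sequences, proposed from the first random library and measured here. Their group label is 14L_GP_Gen (GP: Gaussian process model; Gen: genetic algorithm; a sequence that several methods proposed may carry one label only). The scFvs were displayed on barcoded MATa yeast, the peptide on MATalpha yeast. Binding brings cells together so that they mate, and sequencing counts the barcode pairs among the diploids. Each replicate has its own calibration line, from reference interactions of the BCL2 family. The assay was run in six technical replicates.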

Parent: Ab-14, a human scFv built as VH, a 15-residue (Gly4Ser)3 linker, VL. Only the CDRs of the light chain vary.
VH: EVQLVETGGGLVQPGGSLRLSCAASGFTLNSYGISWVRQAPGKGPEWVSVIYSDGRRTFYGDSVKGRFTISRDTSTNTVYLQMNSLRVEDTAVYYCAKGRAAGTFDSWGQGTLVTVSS
VL: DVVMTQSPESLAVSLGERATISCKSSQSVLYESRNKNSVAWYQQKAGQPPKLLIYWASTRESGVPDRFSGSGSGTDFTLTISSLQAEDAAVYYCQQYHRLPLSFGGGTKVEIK

Variants are written as CDR1, CDR2 and CDR3 of the light chain (limits as in the source). Parent: KSSQSVLYESRNKNSVA, WASTRES, QQYHRLPLS. Scale: log10 of Kd in nM, estimated from mating counts; low values are strong binders. Nonspecific signal, from three strains lacking the peptide, appeared in 4% of pairings of all light chain designs, centred on 2.64 (5% of these signals below 1.59); values are not corrected for it. Also given: how often the same scFv was detected with the empty control strains, with their mean in brackets. A sequence measured in both rounds can read differently, since the two assays cover different ranges. The authors averaged sequences with at least three values out of six and counted those with two or fewer as poor binders.

| # | CDR-L1 | CDR-L2 | CDR-L3 | log10 Kd, replicates | control signals |
|---|---|---|---|---|---|
| 1 | KMQQSELYESRNKNSVA | NASQRLS | QQYHRLPLS | 0.22 -0.06 0.01 -0.21 0.04 0.31 | 1/18 (3.07) |
| 2 | KFSQSVLYESRNKNSVA | NASQRES | QQYHRLPLS | -0.22 -0.45 -0.42 -0.24 -0.27 -0.39 | 3/18 (2.66) |
| 3 | KLSQSYLYESRNKNSVA | NASTREQ | QQYHRLPLS | -0.19 -0.28 -0.36 -0.41 -0.34 -0.13 | 4/18 (3.54) |
| 4 | KLQQSVDYESRNKNSVA | DASTRES | QQYHRLPLS | 0.32 0.19 -0.03 0.13 0.26 0.23 | 3/18 (2.49) |
| 5 | KLQQSVEYESRNKNSVA | DASTRES | QQYHRLPLS | -0.08 -0.18 -1.15 -0.71 -0.06 -1.04 | 0/18 |
| 6 | KLSQSVWYESRNKNSVA | EASTRCS | QQYHRLPLS | 0.64 0.32 0.56 0.23 0.55 -0.10 | 0/18 |
| 7 | KVSQSVLYESRNKNNVA | DASQRES | QQYHRLPLS | -0.51 -0.54 -0.63 -0.72 -0.47 -0.35 | 1/18 (3.25) |
| 8 | KLQQSVEYESRNKNSVA | NASTRLS | QQYHRLPLS | -0.05 -0.22 -0.37 -0.44 -0.28 -0.20 | 1/18 (3.23) |
| 9 | KLEQSWLYESRNKNSVA | NASTREV | QQYHRLPLS | 0.13 0.05 0.21 0.07 -0.02 0.01 | 2/18 (3.72) |
| 10 | KFSQSYLYESRNKNAVA | NASTRES | QQYHRLPLS | -0.21 -0.30 -0.38 -0.24 -0.43 -0.25 | 1/18 (2.40) |
| 11 | KVPQSVLYESRNKNSVA | NASQRES | QQYHRLPLS | 0.11 -0.26 -0.33 -0.46 -0.07 -0.12 | 0/18 |
| 12 | HLSQSVLYEQRNKNSVA | NASTRES | QQYHRLPLS | 0.03 0.02 -0.48 -0.26 -0.19 -0.05 | 0/18 |
| 13 | KLQQSHLYESRNKNSVA | SASTRES | QQYHRLPLS | 0.26 0.14 -0.22 -0.06 -0.01 0.28 | 1/18 (2.66) |
| 14 | KLPQSGLYESRNKNSVA | NASTREQ | QQYHRLPLS | -0.55 -0.35 -0.54 -0.47 -0.46 -0.40 | 1/18 (3.65) |
| 15 | KVSQSVLYEDRMKNSVA | NASQRES | QQYHRLPLS | 0.34 0.32 0.30 0.09 0.17 0.44 | 0/18 |
| 16 | KFQQSQLYESRNKNSVA | NASTRLS | QQYHRLPLS | 0.33 0.15 -0.12 -0.07 0.01 0.16 | 1/18 (1.96) |
| 17 | KFSQSVWYESRNKNSVA | EASTRES | QQYHRLPLS | 0.01 0.27 -0.13 0.21 -0.06 0.01 | 3/18 (2.69) |
| 18 | KVSQSVLYEDRNKNAVA | NASQRES | QQYHRLPLS | -0.06 -0.11 -0.02 -0.14 -0.24 -0.13 | 0/18 |
| 19 | KLEQSELYESRNKNSVA | NASTRMS | QQYHRLPLS | -0.02 -0.26 -0.15 -0.08 -0.08 0.00 | 0/18 |
| 20 | KLSQSWLYESRNKNNVA | NASQRES | QDYHRLPLS | -0.38 -0.55 -0.64 -0.72 -0.66 -0.60 | 1/18 (2.35) |
| 21 | KLSQSELYESRNWNSVA | NASTRLS | QQYHRLPLS | 0.22 0.13 0.20 -0.06 -0.20 0.42 | 0/18 |
| 22 | KLSQSVGYESRNKNSVA | HASTRES | QQYHRLPLS | -0.06 -0.16 -0.40 -0.24 -0.12 -0.17 | 0/18 |
| 23 | KVSQSHLYESRNKNNVA | NASTRES | QQYHRLPLS | 0.11 0.09 -0.18 -0.19 -0.20 -0.05 | 0/18 |
| 24 | KLQQSVLYESRNKNSVA | HASQRES | QQYHRLPLS | 0.07 0.13 0.16 -0.15 0.15 0.21 | 2/18 (3.45) |
| 25 | KVSQSDLYEDRNKNSVA | NASQRES | QQYHRLPLS | -0.75 -0.29 -0.80 -0.72 -0.92 -0.53 | 1/18 (1.72) |
| 26 | KLSQSVLYESRDKNSVA | NASTRLS | QQYHRLPLS | 0.57 0.15 0.25 0.33 0.25 0.21 | 0/18 |
| 27 | KLSQSNLYESRNKNSVA | NASTREE | QQYHRLPLS | 0.25 0.14 0.01 0.15 0.15 0.47 | 1/18 (1.64) |
| 28 | KVSQSWLYESRNKNSVA | NASTREQ | QQYHRLPLS | -0.19 0.08 -0.48 -0.18 -0.26 0.03 | 0/18 |
| 29 | KLQQSVLYESRNKNSVA | NASYRES | QQYHRLPLS | -0.13 -0.21 -0.46 -0.47 -0.44 0.01 | 1/18 (2.12) |
| 30 | KLSSSWLYESRNKNSVA | NASTRES | QQYHRLPLS | 0.00 -0.47 -0.42 -0.19 -0.36 -0.20 | 1/18 (1.47) |
| 31 | KLSQSVLYESRCKNSVA | EASTRES | QQYHRLPLS | 0.28 0.33 0.20 0.09 0.23 0.27 | 1/18 (2.74) |
| 32 | KVSQSVLYESRMKNSVA | NASQRES | QQYHRLPLS | -0.05 0.17 0.27 0.07 -0.02 0.33 | 0/18 |
| 33 | KLAQSVLYESRNKNSVA | EASTRES | QQYHRLPLS | 0.07 -0.04 -0.23 -0.12 -0.33 0.02 | 0/18 |
| 34 | KVSQSELYESRNKNSVA | NGSTRES | QQYHRLPLS | 0.25 -0.02 0.08 0.15 0.70 0.25 | 0/18 |
| 35 | KLPQSVQYESRNKNSVA | NASTRES | QQYHRLPLS | -0.33 -0.36 -0.37 -0.48 -0.45 -0.08 | 0/18 |
| 36 | KMSQSDLYESRNKNSVA | NASTRES | QQYHRLPLS | -0.28 -0.31 -0.42 -0.36 -0.21 0.03 | 2/18 (2.21) |
| 37 | KVSQSNLYESRNKNSVA | NASTRLS | QQYHRLPLS | 0.31 0.40 0.47 0.11 0.26 0.33 | 0/18 |
| 38 | KVSQSELYESRNKNSVA | NASTRLS | QQYHRLPLS | -0.09 -0.12 -0.05 -0.19 0.14 0.01 | 2/18 (2.72) |
| 39 | KLSQSVMYESRNKNNVA | NASTRES | QQYHRLPLS | -0.31 -0.57 -0.60 -0.60 -0.66 -0.50 | 0/18 |
| 40 | KFSQSWLYESRNKNSVA | HASQRES | QQYHRLPLS | -0.35 -0.51 -0.46 -0.49 -0.30 -0.33 | 0/18 |
| 41 | KLKQSVLYESRNKNSVA | GASTRES | QQYHRLPLS | -0.34 -0.61 -0.45 -0.57 -0.49 -0.40 | 1/18 (2.39) |
| 42 | KVQQSDLYESRNKNSVA | EASTRES | QQYHRLPLS | -0.21 -0.38 -0.47 -0.57 -0.50 -0.12 | 3/18 (2.77) |
| 43 | KLSQSVLYEDRNKNSVA | GASTRES | QQYHRLPLS | -0.28 -0.25 -0.43 -0.65 -0.59 -0.12 | 1/18 (2.71) |

Repeated from above, the 6 best binders with a signal in all replicates:

| CDR-L1 | CDR-L2 | CDR-L3 | log10 Kd, replicates | control signals |
|---|---|---|---|---|
| KVSQSDLYEDRNKNSVA | NASQRES | QQYHRLPLS | -0.75 -0.29 -0.80 -0.72 -0.92 -0.53 | 1/18 (1.72) |
| KLSQSWLYESRNKNNVA | NASQRES | QDYHRLPLS | -0.38 -0.55 -0.64 -0.72 -0.66 -0.60 | 1/18 (2.35) |
| KLSQSVMYESRNKNNVA | NASTRES | QQYHRLPLS | -0.31 -0.57 -0.60 -0.60 -0.66 -0.50 | 0/18 |
| KLQQSVEYESRNKNSVA | DASTRES | QQYHRLPLS | -0.08 -0.18 -1.15 -0.71 -0.06 -1.04 | 0/18 |
| KVSQSVLYESRNKNNVA | DASQRES | QQYHRLPLS | -0.51 -0.54 -0.63 -0.72 -0.47 -0.35 | 1/18 (3.25) |
| KLKQSVLYESRNKNSVA | GASTRES | QQYHRLPLS | -0.34 -0.61 -0.45 -0.57 -0.49 -0.40 | 1/18 (2.39) |